For assay [1], the target named is T1, full-length B-Catenin (Uniprot ID P35222) (Homo sapiens, UniProt P35222).
T1 construct: 10 nM full-length B-Catenin (Uniprot ID P35222)
Put plainly: biochemical. It is filed as binding. The following applies: beta-Catenin FP IC50 (nM), competition fluorescence polarization. On the technique in general: Fluorescence polarisation rises when a labelled molecule tumbles more slowly, as on binding a larger partner.

By UniProt entry, the sequences of proteins in these tests, tags left out.
UniProt P35222, whole entry: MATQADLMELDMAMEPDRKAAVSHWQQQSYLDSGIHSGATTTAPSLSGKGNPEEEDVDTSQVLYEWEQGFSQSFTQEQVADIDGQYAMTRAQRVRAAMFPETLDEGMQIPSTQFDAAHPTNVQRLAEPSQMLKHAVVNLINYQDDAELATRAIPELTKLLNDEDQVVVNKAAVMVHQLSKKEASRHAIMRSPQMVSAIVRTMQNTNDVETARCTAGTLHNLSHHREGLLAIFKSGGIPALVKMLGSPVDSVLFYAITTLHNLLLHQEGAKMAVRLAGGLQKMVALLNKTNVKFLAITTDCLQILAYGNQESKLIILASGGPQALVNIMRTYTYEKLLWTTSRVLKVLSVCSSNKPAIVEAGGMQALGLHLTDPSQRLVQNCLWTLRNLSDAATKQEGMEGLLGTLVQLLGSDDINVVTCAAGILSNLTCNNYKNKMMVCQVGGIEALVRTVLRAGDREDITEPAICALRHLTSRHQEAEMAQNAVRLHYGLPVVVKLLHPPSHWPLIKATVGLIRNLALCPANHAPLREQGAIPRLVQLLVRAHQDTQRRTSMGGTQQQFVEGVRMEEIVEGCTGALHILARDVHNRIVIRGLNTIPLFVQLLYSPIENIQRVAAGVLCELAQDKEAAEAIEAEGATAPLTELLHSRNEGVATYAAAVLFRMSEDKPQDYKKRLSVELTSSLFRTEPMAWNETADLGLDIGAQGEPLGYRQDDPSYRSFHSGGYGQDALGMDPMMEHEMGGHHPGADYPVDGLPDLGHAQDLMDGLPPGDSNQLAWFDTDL

The target in assay [2] is beta-catenin/TCF4 interaction (Homo sapiens, UniProt P35222). Kind of assay: cell-based. More on the design: host or cells: HEK293. The following applies: NanoBRET Abs IC50 (uM), absolute IC50. In general terms: In BRET a luciferase serves as donor, and the signal depends on an acceptor being close.

Usually IC50 stands for the concentration at which inhibition is half-maximal. High values mean weaker potency, low ones greater potency.

Take `CCCC[C@@H]1NC(=O)[C@H](C)NC(=O)C(C)(C)NC(=O)[C@H](Cc2cccc(C(=O)O)c2)NC(=O)[C@H](CC(=O)O)NC(=O)C2(CCCC=CCCCOC(=O)N3CC[C@@]4(C3)NC(=O)[C@H](CCCCNC(=O)CC[C@@H](C(=O)N[C@@H](C)C(N)=O)NC(=O)[C@H](Cc3ccc(Cl)c(Cl)c3)NC(=O)[C@H](Cc3ccccc3)NC4=O)NC1=O)CCCC=CC[C@]1(CCCN1C(C)=O)C(=O)N[C@@H](CC(=O)O)C(=O)N[C@@H](CC(C)(C)C)C(=O)N2` (single isomer, unassigned) [I-479, Ac-PL3-Asp-Npg-B5-Asp-3COOHF-Aib-Ala-nLeu-Lys*3-PyrS2-Phe-34ClF-GlnR*3-Ala-NH2]: the results for the IC50 in assay [1] and in assay [2] were under 50 nM and 3 to 10 µM, respectively.

In the case of `CC(=O)N1CCC[C@]12CC=CCCCC1(CCCC=CCCCOC(=O)N3CC[C@@]4(C3)NC(=O)[C@H](CCCCNC(=O)CC[C@@H](C(=O)N[C@@H](C)C(N)=O)NC(=O)[C@H](Cc3ccc5ccccc5c3)NC(=O)[C@H](Cc3ccccc3)NC4=O)NC(=O)[C@H](Cc3ccccc3)NC(=O)[C@H](C)NC(=O)C(C)(C)NC(=O)[C@H](Cc3cccc(C(=O)O)c3)NC(=O)[C@H](CC(=O)O)NC1=O)NC(=O)[C@H](CC(C)(C)C)NC(=O)[C@H](CC(=O)O)NC2=O` (single isomer, unassigned) [I-483, Ac-PL3-Asp-Npg-B5-Asp-3COOHF-Aib-Ala-Phe-Lys*3-PyrS2-Phe-2NapA-GlnR*3-Ala-NH2], the concentration for half-maximal inhibition (IC50) in assay [1] is under 50 nM; in assay [2] it was 3 to 10 µM.

As for `CC(=O)N1CCC[C@]12CC=CCCCC1(CCCC=CCCCOC(=O)N3CC[C@@]4(C3)NC(=O)[C@H](CCCCNC(=O)CC[C@@H](C(=O)N[C@@H](C)C(N)=O)NC(=O)[C@H](Cc3ccc5ccccc5c3)NC(=O)[C@H](Cc3ccsc3)NC4=O)NC(=O)[C@H](Cc3ccccc3)NC(=O)[C@H](C)NC(=O)C(C)(C)NC(=O)[C@H](Cc3cccc(C(=O)O)c3)NC(=O)[C@H](CC(=O)O)NC1=O)NC(=O)[C@H](CC(C)(C)C)NC(=O)[C@H](CC(=O)O)NC2=O` (single isomer, unassigned) [I-485, Ac-PL3-Asp-Npg-B5-Asp-3COOHF-Aib-Ala-Phe-Lys*3-PyrS2-3Thi-2NapA-GlnR*3-Ala-NH2], the results for the IC50 in assay [1] and in assay [2] were under 50 nM and 3 to 10 µM, respectively.

For the compound `CC(=O)N1CCC[C@]12CC=CCCCC1(CCCC=CCCCOC(=O)N3CC[C@@]4(C3)NC(=O)[C@H](CCCCNC(=O)CC[C@@H](C(=O)N[C@@H](C)C(N)=O)NC(=O)[C@H](Cc3ccc5ccccc5c3)NC(=O)[C@H](Cc3ccccc3Cl)NC4=O)NC(=O)[C@H](Cc3ccccc3)NC(=O)[C@H](C)NC(=O)C(C)(C)NC(=O)[C@H](Cc3cccc(C(=O)O)c3)NC(=O)[C@H](CC(=O)O)NC1=O)NC(=O)[C@H](CC(C)(C)C)NC(=O)[C@H](CC(=O)O)NC2=O` (single isomer, unassigned) [I-487, Ac-PL3-Asp-Npg-B5-Asp-3COOHF-Aib-Ala-Phe-Lys*3-PyrS2-2ClF-2NapA-GlnR*3-Ala-NH2], the concentration for half-maximal inhibition (IC50) in assay [1] was under 50 nM; in assay [2], 3 to 10 µM.

Turning to `CC(=O)N1CCC[C@]12CC=CCCCC1(CCCC=CCCCOC(=O)N3CC[C@@]4(C3)NC(=O)[C@H](CCCCNC(=O)CC[C@@H](C(=O)N[C@@H](CC(C)C)C(=O)N[C@@H](CCC(=O)O)C(=O)N[C@@H](C)C(N)=O)NC(=O)[C@H](Cc3csc5ccccc35)NC(=O)[C@H](Cc3ccsc3)NC4=O)NC(=O)[C@H](Cc3ccccc3)NC(=O)[C@H](C)NC(=O)C(C)(C)NC(=O)[C@H](Cc3cccc(C(=O)O)c3)NC(=O)[C@H](CC(=O)O)NC1=O)NC(=O)[C@H](CC(C)(C)C)NC(=O)[C@H](CC(=O)O)NC2=O` (single isomer, unassigned) [I-494, Ac-PL3-Asp-Npg-B5-Asp-3COOHF-Aib-Ala-Phe-Lys*3-PyrS2-3Thi-BztA-GlnR*3-Leu-Glu-Ala-NH2], the IC50 in assay [1] is under 50 nM; in assay [2], 3 to 10 µM.

For `CC(=O)N1CCC[C@]12CC=CCCCC1(CCCC=CCCCOC(=O)N3CC[C@@]4(C3)NC(=O)[C@H](CCCCNC(=O)CC[C@@H](C(=O)N[C@@H](CC(C)C)C(=O)N[C@@H](CO)C(=O)N[C@@H](C)C(N)=O)NC(=O)[C@H](Cc3csc5ccccc35)NC(=O)[C@H](Cc3ccsc3)NC4=O)NC(=O)[C@H](Cc3ccccc3)NC(=O)[C@H](C)NC(=O)C(C)(C)NC(=O)[C@H](Cc3cccc(C(=O)O)c3)NC(=O)[C@H](CC(=O)O)NC1=O)NC(=O)[C@H](CC(C)(C)C)NC(=O)[C@H](CC(=O)O)NC2=O` (single isomer, unassigned) [I-496, Ac-PL3-Asp-Npg-B5-Asp-3COOHF-Aib-Ala-Phe-Lys*3-PyrS2-3Thi-BztA-GlnR*3-Leu-Ser-Ala-NH2], the IC50 in assay [1] is under 50 nM; in assay [2] it was 3 to 10 µM.

For the compound `CC(=O)N1CCC[C@]12CC=CCCCC1(CCCC=CCCCOC(=O)N3CC[C@@]4(C3)NC(=O)[C@H](CCCCNC(=O)CC[C@@H](C(=O)N[C@@H](CC(C)C)C(=O)N[C@H](C(=O)N[C@@H](C)C(N)=O)[C@@H](C)O)NC(=O)[C@H](Cc3csc5ccccc35)NC(=O)[C@H](Cc3ccsc3)NC4=O)NC(=O)[C@H](Cc3ccccc3)NC(=O)[C@H](C)NC(=O)C(C)(C)NC(=O)[C@H](Cc3cccc(C(=O)O)c3)NC(=O)[C@H](CC(=O)O)NC1=O)NC(=O)[C@H](CC(C)(C)C)NC(=O)[C@H](CC(=O)O)NC2=O` (single isomer, unassigned) [I-498, Ac-PL3-Asp-Npg-B5-Asp-3COOHF-Aib-Ala-Phe-Lys*3-PyrS2-3Thi-BztA-GlnR*3-Leu-Thr-Ala-NH2], the 50% inhibitory concentration (IC50) in assay [1] is under 50 nM; in assay [2], 1.5 to 3 µM.

With `CC(=O)N1CCC[C@]12CC=CCCCC1(CCCC=CCCCOC(=O)N3CC[C@@]4(C3)NC(=O)[C@H](CCCCNC(=O)CC[C@@H](C(=O)N[C@@H](CC(C)C)C(=O)N[C@H](C(=O)N[C@@H](C)C(N)=O)[C@H](C)O)NC(=O)[C@H](Cc3csc5ccccc35)NC(=O)[C@H](Cc3ccsc3)NC4=O)NC(=O)[C@H](Cc3ccccc3)NC(=O)[C@H](C)NC(=O)C(C)(C)NC(=O)[C@H](Cc3cccc(C(=O)O)c3)NC(=O)[C@H](CC(=O)O)NC1=O)NC(=O)[C@H](CC(C)(C)C)NC(=O)[C@H](CC(=O)O)NC2=O` (single isomer, unassigned) [I-500, Ac-PL3-Asp-Npg-B5-Asp-3COOHF-Aib-Ala-Phe-Lys*3-PyrS2-3Thi-BztA-GlnR*3-Leu-aThr-Ala-NH2], the IC50 was under 50 nM in assay [1] and 1.5 to 3 µM in assay [2].

In the case of `CC(=O)N1CCC[C@]12CC=CCCCC1(CCCC=CCCCOC(=O)N3CC[C@@]4(C3)NC(=O)[C@H](CCCCNC(=O)CC[C@@H](C(=O)N[C@@H](CC(C)C)C(=O)N[C@@H](CC(=O)O)C(=O)N[C@@H](CC(C)C)C(N)=O)NC(=O)[C@H](Cc3csc5ccccc35)NC(=O)[C@H](Cc3ccsc3)NC4=O)NC(=O)[C@H](Cc3ccccc3)NC(=O)[C@H](C)NC(=O)C(C)(C)NC(=O)[C@H](Cc3cccc(C(=O)O)c3)NC(=O)[C@H](CC(=O)O)NC1=O)NC(=O)[C@H](CC(C)(C)C)NC(=O)[C@H](CC(=O)O)NC2=O` (single isomer, unassigned) [I-502, Ac-PL3-Asp-Npg-B5-Asp-3COOHF-Aib-Ala-Phe-Lys*3-PyrS2-3Thi-BztA-GlnR*3-Leu-Asp-Leu-NH2], the values for the IC50 in assay [1] and in assay [2] were under 50 nM and 3 to 10 µM, respectively.

For `CC(=O)N1CCC[C@]12CC=CCCCC1(CCCC=CCCCOC(=O)N3CC[C@@]4(C3)NC(=O)[C@H](CCCCNC(=O)CC[C@@H](C(=O)N[C@@H](CC(C)C)C(=O)N[C@@H](CCC(=O)O)C(=O)N[C@@H](CC(C)C)C(N)=O)NC(=O)[C@H](Cc3csc5ccccc35)NC(=O)[C@H](Cc3ccsc3)NC4=O)NC(=O)[C@H](Cc3ccccc3)NC(=O)[C@H](C)NC(=O)C(C)(C)NC(=O)[C@H](Cc3cccc(C(=O)O)c3)NC(=O)[C@H](CC(=O)O)NC1=O)NC(=O)[C@H](CC(C)(C)C)NC(=O)[C@H](CC(=O)O)NC2=O` (single isomer, unassigned) [I-504, Ac-PL3-Asp-Npg-B5-Asp-3COOHF-Aib-Ala-Phe-Lys*3-PyrS2-3Thi-BztA-GlnR*3-Leu-Glu-Leu-NH2], the IC50 was under 50 nM in assay [1] and 3 to 10 µM in assay [2].

In the case of `CC(=O)N1CCC[C@]12CC=CCCCC1(CCCC=CCCCOC(=O)N3CC[C@@]4(C3)NC(=O)[C@H](CCCCNC(=O)CC[C@@H](C(=O)N[C@H](C(=O)N[C@H](C(=O)N[C@@H](C)C(N)=O)[C@@H](C)O)C(C)C)NC(=O)[C@H](Cc3csc5ccccc35)NC(=O)[C@H](Cc3ccsc3)NC4=O)NC(=O)[C@H](Cc3ccccc3)NC(=O)[C@H](C)NC(=O)C(C)(C)NC(=O)[C@H](Cc3cccc(C(=O)O)c3)NC(=O)[C@H](CC(=O)O)NC1=O)NC(=O)[C@H](CC(C)(C)C)NC(=O)[C@H](CC(=O)O)NC2=O` (single isomer, unassigned) [I-508, Ac-PL3-Asp-Npg-B5-Asp-3COOHF-Aib-Ala-Phe-Lys*3-PyrS2-3Thi-BztA-GlnR*3-Val-Thr-Ala-NH2], the IC50 in assay [1] is under 50 nM; in assay [2], 1.5 to 3 µM.

`CC(=O)N1CCC[C@]12CC=CCCCC1(CCCC=CCCCOC(=O)N3CC[C@@]4(C3)NC(=O)[C@H](CCCCNC(=O)CC[C@@H](C(=O)N[C@H](C(=O)N[C@H](C(=O)N[C@@H](C)C(N)=O)[C@H](C)O)C(C)C)NC(=O)[C@H](Cc3csc5ccccc35)NC(=O)[C@H](Cc3ccsc3)NC4=O)NC(=O)[C@H](Cc3ccccc3)NC(=O)[C@H](C)NC(=O)C(C)(C)NC(=O)[C@H](Cc3cccc(C(=O)O)c3)NC(=O)[C@H](CC(=O)O)NC1=O)NC(=O)[C@H](CC(C)(C)C)NC(=O)[C@H](CC(=O)O)NC2=O` (single isomer, unassigned) [I-510, Ac-PL3-Asp-Npg-B5-Asp-3COOHF-Aib-Ala-Phe-Lys*3-PyrS2-3Thi-BztA-GlnR*3-Val-aThr-Ala-NH2]: the IC50 in assay [1] was under 50 nM; in assay [2], 1.5 to 3 µM.
